Measurements: PubChem BioAssay AID2825 (Sanford-Burnham Center for Chemical Genomics, 2010)
This is a selection; strong and weak results do not stand in their true shares. Some salts or complexes appear as unconnected parts, following the source record. Activity calls are given as the source filed them.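 Rule for the calls: active = inhibition of 50% or more; inactive = inhibition below 50%.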

Test: blockers of yeast NLRP3/ASC/caspase-1 reporter – luminescence, uHTS, primary screen (AID 2825);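 note: plate controls were induced DMSO wells for no effect and uninduced yeast grown without galactose for full effect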
Conditions: Yeast reconstituted NLRP3/ASC/caspase-1, beta-gal luminescence, 24 h; at 10 µM; hits give high values
In the case of `CP(=O)(Nc1ccccc1)Oc1ccc(F)cc1` (configuration not stated), the inhibition is reported as inactive: 7.43%. In the case of `CCCCCOc1ccc(NP(C)(=O)Oc2ccc(Cl)cc2Cl)cc1` (configuration not stated), the inhibition is reported as inactive: 26.1%. For `O=[N+]([O-])c1cc([N+](=O)[O-])c(OC2CCCCC2O)c([N+](=O)[O-])c1` (configuration not stated), the inhibition was inactive: 27.7%. In the case of `CCN(CC)CCCOC(=O)C(O)(c1ccccc1)C1CCCCC1` (configuration not stated), the inhibition is reported as inactive: 12.1%. With `CCOC(=O)c1ccc(NP(C)(=O)Oc2ccc(F)cc2)cc1` (configuration not stated) the inhibition was inactive: 11.2%. In the case of `COc1ccc(OP(C)(=O)Nc2ccc(SC(F)(F)F)cc2)cc1` (configuration not stated), the inhibition is reported as inactive: 16.3%. For `COc1ccc2c(c1O)-c1c(O)c(OC)cc3c1[C@H](C2)[N+](C)(C)CC3.O=[N+]([O-])c1cc([N+](=O)[O-])c([O-])c([N+](=O)[O-])c1[O-]`, the inhibition was inactive: 16.2%. In the case of `O=C(OC1CN2CCC1CC2)c1ccc([N+](=O)[O-])cc1` (configuration not stated), the inhibition is reported as inactive: 14.8%. In the case of `O=C(OCCN1CCN(CCOCc2ccccc2)CC1)C(O)(c1ccccc1)c1ccccc1`, the inhibition is reported as inactive: 24.2%. With `CP(=O)(Nc1ccccc1F)Oc1ccccc1` (configuration not stated) the inhibition was inactive: 17.7%. With `CC(C)c1ccc(OP(C)(=O)Nc2ccc(SC(F)(F)F)cc2)cc1` (configuration not stated) the inhibition was inactive: -0.431%. For `Cc1ccccc1NP(C)(=O)Nc1ccccc1C`, the inhibition was inactive: 6.68%. With `CP(=O)(Nc1ccc2c(c1)OCCO2)Oc1ccccc1` (configuration not stated) the inhibition was inactive: 8.88%. In the case of `CCOP(C)(=S)SCC(=O)NC(C)(CC)C(=O)O` (configuration not stated), the inhibition is reported as inactive: 11.9%. In the case of `CP(=O)(Nc1ccc(SC(F)(F)F)cc1)Oc1ccc(F)cc1` (configuration not stated), the inhibition is reported as inactive: 16.8%. With `O=[N+]([O-])c1cc([N+](=O)[O-])c(NCC2CCS(=O)(=O)C2)c([N+](=O)[O-])c1` (configuration not stated) the inhibition was inactive: 21.6%. In the case of `CN(C)CCOC(=O)C(O)(c1ccccc1)C1CCCCC1` (configuration not stated), the inhibition is reported as inactive: 8.37%. In the case of `COc1ccc(NP(C)(=O)Oc2ccccc2OC)cc1` (configuration not stated), the inhibition is reported as inactive: 9.9%. For `COc1ccc(OP(C)(=O)Nc2cccc(Br)c2)cc1` (configuration not stated), the inhibition was inactive: 5.24%. In the case of `CCOC(=O)c1ccc(NP(C)(=O)Oc2ccc(Cl)cc2)cc1` (configuration not stated), the inhibition is reported as inactive: 8.34%. With `CP(=O)(OC12CC3CC(CC(C3)C1)C2)OC12CC3CC(CC(C3)C1)C2` the inhibition was inactive: 4.34%. For `Nc1ccc2c(ccc3cccnc32)n1.O=[N+]([O-])c1cc([N+](=O)[O-])c(O)c([N+](=O)[O-])c1`, the inhibition was inactive: -5.47%. In the case of `CN(C)C(=O)c1c([N+](=O)[O-])cc([N+](=O)[O-])cc1[N+](=O)[O-]`, the inhibition is reported as inactive: 22.4%. With `CC(C)(C)c1ccc(OP(C)(=O)O)cc1` the inhibition was inactive: 14.1%. For `COc1ccccc1OP(C)(=O)Nc1ccccc1Br` (configuration not stated), the inhibition was inactive: 6%. With `CP(=O)(Nc1ccc(Cl)cc1)Oc1ccc(F)cc1` (configuration not stated) the inhibition was inactive: 24.1%. For `COc1ccccc1OP(C)(=O)Nc1c(C)n(C)n(-c2ccccc2)c1=O` (configuration not stated), the inhibition was inactive: 0.724%. With `O=C(OCCCN1CCCC1)C(O)(c1ccccc1)C1CCCCC1` (configuration not stated) the inhibition was inactive: 17.2%. In the case of `CP(=O)(Oc1ccccc1)N1CCOC1=O` (configuration not stated), the inhibition is reported as inactive: 9.92%. With `CCc1ccc(OP(C)(=O)Nc2cccnc2)cc1` (configuration not stated) the inhibition was inactive: -2.25%. For `CCN(CC)CC(O)COC(=O)C(O)(c1ccccc1)C1CCCCC1` (configuration not stated), the inhibition was inactive: -21.4%. With `COc1ccc(OP(C)(=O)Nc2ccc(Br)cc2)cc1` (configuration not stated) the inhibition was inactive: 0.773%. With `CP(=O)(Nc1ccccn1)Oc1ccccc1` (configuration not stated) the inhibition was inactive: 1.62%. In the case of `COc1ccccc1OP(C)(=O)Nc1ccc(C)cc1C` (configuration not stated), the inhibition is reported as inactive: 15.7%. In the case of `CCc1ccc(OP(C)(=O)O)cc1`, the inhibition is reported as inactive: 3.17%. With `O=[N+]([O-])c1cc([N+](=O)[O-])c(Nc2ccccn2)c([N+](=O)[O-])c1` the inhibition was inactive: 39.8%. In the case of `Cc1c(NP(C)(=O)Oc2ccc(C(C)C)cc2)c(=O)n(-c2ccccc2)n1C` (configuration not stated), the inhibition is reported as inactive: 10.5%. In the case of `COc1ccc(OP(C)(=O)Nc2ccccn2)cc1` (configuration not stated), the inhibition is reported as inactive: 8.72%. In the case of `CN(C)CCOC(=O)C(O)(c1ccccc1)C1CCCC1` (configuration not stated), the inhibition is reported as inactive: -3.69%. For `COc1ccccc1OP(C)(=O)Nc1ccc(Br)cc1` (configuration not stated), the inhibition was inactive: -0.614%. For `CP(=O)(OCCOc1ccccc1)OCCOc1ccccc1`, the inhibition was inactive: 14%. For `CP(=O)(Nc1ccc(Cl)cc1Cl)Oc1ccccc1` (configuration not stated), the inhibition was inactive: 15.7%. For `Cc1nc2ccc3ccccc3c2o1.O=[N+]([O-])c1cc([N+](=O)[O-])c(O)c([N+](=O)[O-])c1`, the inhibition was inactive: 23.9%. For `COc1ccccc1OP(C)(=O)Nc1ccc(C)c(C)c1` (configuration not stated), the inhibition was inactive: 5.98%. For `COc1ccc(OP(C)(=O)Nc2ccccc2Br)cc1` (configuration not stated), the inhibition was inactive: 1.86%. In the case of `Cc1cc(C)cc(OP(C)(=O)Nc2cccc(C(F)(F)F)c2)c1` (configuration not stated), the inhibition is reported as inactive: 4.84%. With `Cc1cc(C)cc(OP(C)(N)=O)c1` (configuration not stated) the inhibition was inactive: -16.5%. For `COc1ccccc1OP(C)(=O)Nc1cc(Cl)ccc1C` (configuration not stated), the inhibition was inactive: 8.05%. For `COc1ccc(OP(C)(=O)Nc2cccc(F)c2)cc1` (configuration not stated), the inhibition was inactive: 6.35%. With `COc1ccccc1OP(C)(=O)Nc1ccc(C)cc1` (configuration not stated) the inhibition was inactive: 0.849%. In the case of `Cc1ccc(NP(C)(=O)Oc2ccccc2)c(C)c1` (configuration not stated), the inhibition is reported as inactive: 23.4%. In the case of `CCOC(=O)c1ccc(NP(C)(=O)Oc2ccccc2)cc1` (configuration not stated), the inhibition is reported as inactive: 10.8%. In the case of `CC(C)(C)c1ccc(OP(C)(=O)Nc2ccc(SC(F)(F)F)cc2)cc1` (configuration not stated), the inhibition is reported as inactive: 4.68%. With `Cc1cccc(C)c1OP(C)(N)=O` (configuration not stated) the inhibition was inactive: -5.42%. With `O=[N+]([O-])c1cc([N+](=O)[O-])c(Nc2cccnc2)c([N+](=O)[O-])c1` the inhibition was inactive: 22.8%. For `CCN(CC)CCCOC(=O)C(O)(c1ccccc1)c1ccccc1`, the inhibition was inactive: 8.5%. For `CP(=O)(Nc1ccccn1)Oc1ccc(Cl)cc1` (configuration not stated), the inhibition was inactive: 10.5%. In the case of `CCOC(=O)c1ccc(NP(C)(=O)Oc2ccc(OC)cc2)cc1` (configuration not stated), the inhibition is reported as inactive: 16.3%. With `O=[N+]([O-])c1cc([N+](=O)[O-])c(O)c([N+](=O)[O-])c1.c1ccc(Oc2ccncc2)cc1` the inhibition was inactive: 18.7%. In the case of `CCOP(C)(=S)SCC(=O)NC(C)C(=O)O` (configuration not stated), the inhibition is reported as inactive: 7.67%. With `CCc1ccc(OP(C)(=O)N2CCN(c3ccc([N+](=O)[O-])cc3)CC2)cc1` (configuration not stated) the inhibition was inactive: 36.9%. For `CP(=O)(NC(=O)Nc1ccccc1)Oc1ccccc1` (configuration not stated), the inhibition was inactive: 7.16%.
